Most compounds without a hit are left out; they make up all but 0.43% or so of the library.
B2AR arrestin – agonists driving beta-arrestin recruitment to human beta2-adrenergic receptor | Potency, µM (doses to about 46.1 µM), hits mostly activators | beta-arrestin recruitment to beta2AR, cell-based reporter | AID 492947 | P07550 | hit rate 0.02% among 330,000; active means well fitted curve in the direction sought with a large enough effect; inconclusive means small, poorly fitted or top-dose-only effect, or another doubt; inactive means no such curve, though single readings can be large; an effect the other way counts as inactive or inconclusive; further: nearly all actives have a fitted effect of over 65% in size
Rango dissoc inh – inhibition of RanGTP-driven Rango-importin beta dissociation | O95149+P62826 | Biochemical FRET Rango-importin beta, RanGTP-induced dissociation | Potency, µM (highest dose often 46.1 µM) | hit rate 0.071% among 340,000; further: nearly all actives have a fitted effect of over 45% in size
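Quantitative HTS using a FRET biosensor: 0.1 uM Rango, 0.25 uM importin beta, 0.6 uM Ran, 2 mM GTP, 0.2 uM RCC1 final, PBS with DTT, Tween-20 and BSA. Post-read taken 45 min after Ran addition.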
CCT chaperon mod – modulators of cytosolic chaperonin (CCT/TRiC) activity. activity change, % (test concentration not listed), hits read low. purified chaperonin ATPase assay, HTRF ADP detection, 30 min. AID 651819. hit rate 0.3% among 360,000; in the data active means activity change below about -30%
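TRiC at 40 or 20 nM final (batch-dependent) in 30 mM Tris pH 7.4, 100 mM KCl, 5 mM MgCl2, 1 mM DTT, with compound at single 76 uM and 10 uM ATP, 30 min at 37 deg C. ADP detected by HTRF Transcreener, 665/615 ratio.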
Rango-impB inh – Rango-importin beta binding inhibition; Rango CFP/YFP FRET sensor + importin beta, 45 min; Potency, µM (top dose mostly 92.2 µM); hit rate 0.031% among 340,000; AID 540263; further: nearly all actives have a fitted effect of over 15% in size
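FRET biosensor Rango (snurportin 1 IBB between N-terminal EYFP and C-terminal Cerulean), 50 nM in PBS/1 mM DTT/0.02% Tween-20/0.1% BSA, preincubated 5 min RT with compound; 0.125 microM importin beta added, 45 min RT, CFP/YFP FRET ratio read.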
MmCpn inh – blocks the Methanococcus maripaludis chaperonin Mm-Cpn | purified Mm-Cpn ATPase, ADP Transcreener TR-FRET | Potency, µM (titrated, usually from 76.9 µM), usual class: inhibitors | hit rate 0.031% among 330,000; active means well fitted curve in the direction sought with a large enough effect; inconclusive means small, poorly fitted or top-dose-only effect, or another doubt; inactive means no such curve, though single readings can be large; an effect the other way counts as inactive or inconclusive; further: nearly all actives have a fitted effect of over 80% in size
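TR-FRET (320 nm excitation; 590 and 665 nm emission) reports ADP made from 10 uM ATP by 25 nM enzyme; compounds were preincubated 10 min, reaction run 30 min, both at 37°C.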
Of the large screens only hits and unclear results are named; the others gave an inactive call. Unless noted, the call rests on the fitted dose curve.

COc1ccc(C(=O)N(C)Cc2ccccc2)cc1Br	none (no result: Rango dissoc inh, CCT chaperon mod, Rango-impB inh)
CCOc1cc(C)nc(N2CCCC(C(=O)NCc3ccccc3F)C2)n1 (centres undefined)	CCT chaperon mod -41.2
O=C(NCCOC(=O)c1ccc(C(=O)OCCNC(=O)c2cccnc2)s1)c1cccnc1	CCT chaperon mod -55.8
O=C(NCCOC(=O)c1cccs1)c1cccnc1	none
COc1cccc2cc(C(=O)NCCc3ccccc3)oc12	none
N#CCC(=O)Nc1ccc(C(=O)OCC(=O)c2ccc3c(c2)OCCO3)cc1	MmCpn inh inconclusive
N#CCC(=O)Nc1ccc(C(=O)OCC(=O)c2ccc3c(c2)OCO3)cc1	MmCpn inh 44.7µM
COc1ccc2cc3cc(C(=O)NCc4cccnc4)oc3nc2c1	CCT chaperon mod -67.9
COc1ccc2cc3cc(C(=O)NCc4ccc5c(c4)OCO5)oc3nc2c1	Rango-impB inh inconclusive
O=C(Nc1ccccc1N1CCOCC1)c1ccccc1NS(=O)(=O)c1ccc(F)cc1	none
O=C(Nc1ccccc1N1CCOCC1)c1ccccc1NS(=O)(=O)c1ccc(F)c(F)c1	CCT chaperon mod -31.1
O=C(c1ccc(F)cc1)C1CCN(C(=O)Nc2ccc(F)cc2)CC1	CCT chaperon mod -33.9
CCOc1ccc(NC(=O)N2CCC(C(=O)c3ccc(F)cc3)CC2)cc1	none
c1ccc(CNc2c3c(nc4ncnn24)CCC3)cc1	none
Cc1ccc(NC(=O)CN(C)C(=O)C(C)OC(=O)CNC(=O)c2ccc(Cl)c([N+](=O)[O-])c2)cc1 (centres undefined)	CCT chaperon mod -76.9
CC(=O)Nc1ccc(-c2csc(N3CCC(C(N)=O)CC3)n2)cc1	none (no result: B2AR arrestin, Rango dissoc inh, CCT chaperon mod, Rango-impB inh)
O=C(O)c1cc(N/N=C/c2ccc3c(c2)OCO3)ccc1Cl	none
C/C(=N\Nc1ccc(Cl)c(C(=O)O)c1)c1ccc2c(c1)OCO2	CCT chaperon mod -54.6
CN1OC[C@@H]2CN(S(=O)(=O)c3cccc(C(F)(F)F)c3)[C@H](c3ccc(N4CCCCC4)cc3)C[C@@H]21	none (no result: B2AR arrestin, Rango dissoc inh, Rango-impB inh, MmCpn inh)
O=C(NCC(c1ccco1)N1CCCC1)c1cc(S(=O)(=O)N2CCCCC2)ccc1Cl (centres undefined)	CCT chaperon mod -40.4
O=C(NCC(c1ccco1)N1CCCC1)c1cccc(S(=O)(=O)N2CCCCC2)c1 (centres undefined)	none (no result: B2AR arrestin, Rango dissoc inh, Rango-impB inh, MmCpn inh)
Cn1c2cc(B(O)O)sc2c2cnn(Cc3c(F)cccc3F)c(=O)c21	none (no result: Rango dissoc inh, CCT chaperon mod, Rango-impB inh)
COc1cc2c(cc1OC)C1O[C@](CCCCN3C(=O)c4ccccc4C3=O)(C2)OC2=C1C(=O)CC(C)(C)C2	none (no result: Rango dissoc inh, CCT chaperon mod, Rango-impB inh)
O=C1CCC(=O)N1CNc1ccc(Oc2ccccc2)cc1	CCT chaperon mod -36.3 (no result: B2AR arrestin, MmCpn inh)
COc1ccc([C@]23Cc4cc(OC)c(OC)cc4C(O2)c2c(cc(C)n(Cc4ccccc4)c2=O)O3)cc1	none (no result: Rango dissoc inh, CCT chaperon mod, Rango-impB inh)
CCOc1cc(/C=C2\CCC/C(=C\c3cc(Cl)c(O)c(OCC)c3)C2=O)cc(Cl)c1O	Rango dissoc inh 6.51µM, Rango-impB inh inconclusive
COc1cc(OC)c(C(=O)CCC(=O)O)cc1OC	CCT chaperon mod -31.0
Cc1c(-c2ccccc2)nc2ccccc2c1C(=O)OCC(=O)Nc1ncc(C(F)(F)F)cc1Cl	CCT chaperon mod -53.4, MmCpn inh inconclusive
O=C(COC(=O)c1cc(-c2ccccc2Cl)nc2ccccc12)Nc1ncc(C(F)(F)F)cc1Cl	none
Cn1c(/C=C/c2ccc(Br)cc2)nc2ccccc2c1=O	none
COc1ccccc1/C=C/CN1CCC(Oc2cc(C(=O)NC3CC3)ccc2OC)CC1	CCT chaperon mod -33.8
COc1ccc(C(=O)NC2CC2)cc1OC1CCN(Cc2ccccc2)CC1	none
Cc1cccc(Nc2nnc(SCC(=O)c3ccc(Br)s3)s2)c1C	MmCpn inh 39.8µM
O=S1c2ccccc2Oc2ccccc21	none (no result: B2AR arrestin, MmCpn inh)
O=[S@]1Oc2ccccc2-c2ccccc21	CCT chaperon mod -71.3 (no result: B2AR arrestin, MmCpn inh)
CCOc1cc(/C=C2\SC(=S)N(Nc3ccccc3)C2=O)ccc1O	Rango dissoc inh inconclusive
COc1cc(/C=C2\SC(=S)N(Nc3ccccc3)C2=O)ccc1O	Rango-impB inh 36.6µM
O=C1/C(=C/c2ccc(O)c(O)c2)SC(=S)N1Nc1ccccc1	Rango-impB inh 36.6µM
O=C(NN1C(=O)/C(=C/c2ccc(O)c(O)c2)SC1=S)c1ccccc1	Rango dissoc inh inconclusive, Rango-impB inh 36.6µM
COc1ccccc1-c1nnc(SC(C)C(=O)Nc2ccc(C(N)=O)cc2)o1 (centres undefined)	none
CC1(C)N=C(N)N=C(N)N1c1ccc(OCC(=O)N2CCOCC2)c(Cl)c1	none (no result: B2AR arrestin, Rango dissoc inh, Rango-impB inh, MmCpn inh)
O=C(c1ccccc1)N1N=C(c2cccs2)CC1c1ccccc1O (centres undefined)	none
COC(=O)c1ccc(C2N=C(c3cccs3)CC(c3ccccc3O)N2)cc1 (centres undefined)	Rango dissoc inh 14.6µM, Rango-impB inh inconclusive
CC(=O)Nc1ccc(S(=O)(=O)NCc2ccc3c(c2)cc(C)n3C)cc1	Rango dissoc inh 23.1µM, Rango-impB inh inconclusive, MmCpn inh inconclusive
Cc1cc2cc(CNS(=O)(=O)c3ccc4ccccc4c3)ccc2n1C	MmCpn inh inconclusive
O=[N+]([O-])c1ccc(/C=N\N2CCN(Cc3ccccc3Cl)CC2)cc1	none (no result: B2AR arrestin, Rango dissoc inh, Rango-impB inh, MmCpn inh)
O=[N+]([O-])c1ccc(/C=N/N2CCN(Cc3ccccc3)CC2)cc1	CCT chaperon mod -105.1
c1ccc(-c2nc3ccccn3c2NC2CCCC2)nc1	none
Cc1ccn2c(NC3CCCC3)c(-c3ccccn3)nc2c1	CCT chaperon mod -93.2
O=C(CSc1nnc(CNC(=O)c2c(F)cccc2F)o1)NCc1ccco1	none
Cc1ccccc1NS(=O)(=O)c1ccc2c3c(cccc13)C(=O)N2C	Rango dissoc inh inconclusive, Rango-impB inh inconclusive
CN1C(=O)c2cccc3c(S(N)(=O)=O)ccc1c23	Rango dissoc inh 0.581µM, Rango-impB inh inconclusive
O=c1oc2ccc(Cl)cc2nc1/C=C(\O)c1ccco1	none
CC(C)C/C(O)=C/c1nc2cc(Cl)ccc2oc1=O	Rango dissoc inh 14.6µM, Rango-impB inh inconclusive
CCC1(C)Cc2nc3sc(C(=O)O)c(N)c3cc2CO1 (centres undefined)	Rango dissoc inh 18.4µM, Rango-impB inh inconclusive
CCOC(=O)c1sc2nc3c(cc2c1N)COC(C)(CC)C3 (centres undefined)	Rango dissoc inh inconclusive, Rango-impB inh inconclusive
O=C1C(=O)N(c2nccs2)C(c2ccccc2F)/C1=C(\O)c1ccc2c(c1)OCCO2 (centres undefined)	Rango dissoc inh inconclusive, Rango-impB inh inconclusive
NC(=O)C1CCN(c2nc(-c3ccc(N4CCCCC4)nc3)cs2)CC1	none (no result: B2AR arrestin, Rango dissoc inh, CCT chaperon mod, Rango-impB inh)
COc1ccc(N2C(=O)CC(NNC(=O)c3cccnc3)C2=O)cc1 (centres undefined)	CCT chaperon mod -43.0
O=C(NNC1CC(=O)N(c2ccc(Br)cc2)C1=O)c1cccnc1 (centres undefined)	none
COc1ccc(OCC(=O)Nc2nnc(S(=O)(=O)N3CCCCCC3)s2)cc1	none
O=C(COc1ccccc1)Nc1nnc(S(=O)(=O)N2CCCC2)s1	CCT chaperon mod -47.4
CCOC(=O)c1c(NC(=S)NC)sc2c1CC(C)(C)SC2	none
